Reference: ChEMBL document CHEMBL6109064, “Functional and structural polypharmacology of indazole-based privileged ligands to tackle the undruggability of membrane transporters” (Eur J Med Chem, 2025)

Sequences of proteins named here, by UniProt entry; tags and fusion partners are left off.
UniProt Q01959, whole entry: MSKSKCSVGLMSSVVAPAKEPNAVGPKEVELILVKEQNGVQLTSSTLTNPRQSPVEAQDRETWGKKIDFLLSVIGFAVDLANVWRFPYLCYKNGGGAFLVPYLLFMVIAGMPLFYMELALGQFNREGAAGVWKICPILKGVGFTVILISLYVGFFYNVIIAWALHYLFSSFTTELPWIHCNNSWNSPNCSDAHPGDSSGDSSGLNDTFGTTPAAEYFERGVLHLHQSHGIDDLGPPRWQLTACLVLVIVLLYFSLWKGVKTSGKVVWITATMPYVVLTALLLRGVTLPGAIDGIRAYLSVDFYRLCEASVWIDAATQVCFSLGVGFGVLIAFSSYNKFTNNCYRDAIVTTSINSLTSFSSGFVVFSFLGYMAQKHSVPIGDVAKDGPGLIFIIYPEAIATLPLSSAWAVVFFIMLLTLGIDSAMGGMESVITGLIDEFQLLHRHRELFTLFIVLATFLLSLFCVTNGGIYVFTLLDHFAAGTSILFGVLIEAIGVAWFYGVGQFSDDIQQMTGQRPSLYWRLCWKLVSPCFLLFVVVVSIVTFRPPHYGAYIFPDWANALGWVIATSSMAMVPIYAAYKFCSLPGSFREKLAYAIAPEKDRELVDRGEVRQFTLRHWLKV
UniProt P31645, whole entry, looked up: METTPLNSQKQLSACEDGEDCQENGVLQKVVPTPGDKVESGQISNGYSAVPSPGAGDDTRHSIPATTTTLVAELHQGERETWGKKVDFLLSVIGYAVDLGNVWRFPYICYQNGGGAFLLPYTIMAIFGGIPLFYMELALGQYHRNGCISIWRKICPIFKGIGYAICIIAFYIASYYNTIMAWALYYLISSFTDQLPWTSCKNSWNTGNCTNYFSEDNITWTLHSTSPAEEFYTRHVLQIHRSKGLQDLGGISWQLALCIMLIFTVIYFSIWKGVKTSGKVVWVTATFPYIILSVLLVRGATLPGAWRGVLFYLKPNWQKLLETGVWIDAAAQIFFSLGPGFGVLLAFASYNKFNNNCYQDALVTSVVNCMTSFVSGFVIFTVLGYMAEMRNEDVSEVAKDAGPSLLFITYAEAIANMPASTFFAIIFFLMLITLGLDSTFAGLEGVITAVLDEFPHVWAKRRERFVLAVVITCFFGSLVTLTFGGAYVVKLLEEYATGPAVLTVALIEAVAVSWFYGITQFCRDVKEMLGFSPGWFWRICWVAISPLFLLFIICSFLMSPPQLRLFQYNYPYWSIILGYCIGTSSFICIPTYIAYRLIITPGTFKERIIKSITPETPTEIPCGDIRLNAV

Each compound was assayed against Sodium-dependent dopamine transporter (Homo sapiens) (UniProt Q01959) (assay: Inhibition of DAT (unknown origin) expressed in HEK293 cells assessed as inhibition of MPP+ transport incubated for 5 mins by tandem mass spectrometry).
Type: cell-based

inhibition	Compound
inactive	Cc1ccccc1NC(=O)C(C)n1nc(C(=O)Nc2ccccc2)c2ccccc21 (configuration not stated)
inactive	CS(=O)(=O)c1ccc(-c2nn(CC(=O)Nc3ccc(Cl)c(Cl)c3)c3ccccc23)cc1
inactive	CC(C(=O)Nc1ccccc1)n1nc(C(=O)Nc2ccccc2)c2ccccc21 (configuration not stated)
inactive	CC(C(=O)Nc1ccc(F)cc1)n1nc(C(=O)Nc2ccccc2)c2ccccc21 (configuration not stated)
inactive	COc1ccc(NC(=O)C(C)n2nc(C(=O)Nc3ccccc3)c3ccccc32)cc1 (configuration not stated)
inactive	CC(C(=O)Nc1ccccc1)n1nc(C(=O)Nc2ccc(Cl)cc2)c2ccccc21 (configuration not stated)

Each compound was assayed against Sodium-dependent serotonin transporter (Homo sapiens) (UniProt P31645) (assay: Inhibition of SERT (unknown origin) expressed in HEK293 cells assessed as inhibition of MPP+ transport incubated for 5 mins by tandem mass spectrometry).
Type: cell-based

inhibition	Compound
inactive	Cc1ccccc1NC(=O)C(C)n1nc(C(=O)Nc2ccccc2)c2ccccc21 (configuration not stated)
inactive	CS(=O)(=O)c1ccc(-c2nn(CC(=O)Nc3ccc(Cl)c(Cl)c3)c3ccccc23)cc1
inactive	CC(C(=O)Nc1ccccc1)n1nc(C(=O)Nc2ccccc2)c2ccccc21 (configuration not stated)
inactive	CC(C(=O)Nc1ccc(F)cc1)n1nc(C(=O)Nc2ccccc2)c2ccccc21 (configuration not stated)
inactive	COc1ccc(NC(=O)C(C)n2nc(C(=O)Nc3ccccc3)c3ccccc32)cc1 (configuration not stated)
inactive	CC(C(=O)Nc1ccccc1)n1nc(C(=O)Nc2ccc(Cl)cc2)c2ccccc21 (configuration not stated)

The source made the active and inactive calls. The rule behind the calls is not given here.
